Experimental data published in US20080233109A1.

Amino acid sequences for entries named in this document (tags omitted). A change or cut given only in a name is not applied to a line headed by its entry.
UniProt P25206: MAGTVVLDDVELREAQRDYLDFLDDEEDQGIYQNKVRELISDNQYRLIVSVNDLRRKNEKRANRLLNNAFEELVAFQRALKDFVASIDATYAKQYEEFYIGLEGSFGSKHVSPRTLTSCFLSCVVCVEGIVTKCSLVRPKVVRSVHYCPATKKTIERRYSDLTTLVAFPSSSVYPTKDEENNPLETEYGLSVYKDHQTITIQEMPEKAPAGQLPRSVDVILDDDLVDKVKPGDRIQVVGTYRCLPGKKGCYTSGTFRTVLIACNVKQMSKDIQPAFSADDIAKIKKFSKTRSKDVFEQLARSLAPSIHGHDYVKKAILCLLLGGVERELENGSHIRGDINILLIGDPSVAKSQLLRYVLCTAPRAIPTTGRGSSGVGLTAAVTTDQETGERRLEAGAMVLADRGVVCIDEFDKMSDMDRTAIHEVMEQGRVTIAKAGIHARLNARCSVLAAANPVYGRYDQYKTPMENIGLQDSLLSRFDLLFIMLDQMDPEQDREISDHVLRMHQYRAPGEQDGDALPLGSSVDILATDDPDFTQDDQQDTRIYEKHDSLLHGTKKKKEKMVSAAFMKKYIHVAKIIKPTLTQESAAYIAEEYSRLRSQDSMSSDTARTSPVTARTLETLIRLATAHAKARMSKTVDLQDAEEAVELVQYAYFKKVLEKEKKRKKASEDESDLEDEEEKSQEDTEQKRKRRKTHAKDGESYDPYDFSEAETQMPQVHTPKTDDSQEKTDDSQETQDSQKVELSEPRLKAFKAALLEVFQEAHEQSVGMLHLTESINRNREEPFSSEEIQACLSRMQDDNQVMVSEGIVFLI

Target: MCM3-HA (HA epitope-tagged MCM3) (UniProt P25206)
Test: cell-based or functional assay

expression of MCM3 in the cytoplasm (percent of cells): 4%
nuclear expression level of Gmap80-GFP on cotransfection with MCM3 (percent of cells): 64%
Substance: Gmap80-GFP (from UniProt P42212 1-238)
